## scFv variants of Ab-91 (heavy chain) against a SARS-CoV-2 spike peptide

Reference: Engelhart et al. 2022, doi:10.1038/s41597-022-01779-4. File: FLAb, binding data.

All variants were tested on one target, the spike HR2 peptide PDVDLGDISGINAS (SARS-CoV-2).

The variants keep the light chain, the linker and the frameworks of Ab-91 (scFv order VL, three GGGGS repeats, VH).
VL: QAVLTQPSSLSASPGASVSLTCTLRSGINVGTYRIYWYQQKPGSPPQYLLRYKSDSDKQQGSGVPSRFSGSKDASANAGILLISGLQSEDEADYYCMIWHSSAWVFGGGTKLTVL
VH: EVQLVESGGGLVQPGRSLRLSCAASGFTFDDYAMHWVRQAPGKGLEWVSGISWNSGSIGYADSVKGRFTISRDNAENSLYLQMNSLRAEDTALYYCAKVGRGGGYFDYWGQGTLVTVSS

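Phage display of a naive human antibody library on the peptide gave the parent. In library AAYL51, one, two or three CDR residues were substituted; doubles and triples were drawn at random. The scFvs were displayed on barcoded MATa yeast, the peptide on MATalpha yeast. Mating (16 h, 30 °C) was followed by selection of diploids and sequencing of their barcodes. Each replicate has its own calibration line, from reference interactions of the BCL2 family. Each pool was mated in three replicate cultures.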

Variants are written as CDR1, CDR2 and CDR3 of the heavy chain (limits as in the source). Parent: GFTFDDYAMH, GISWNSGSIGYADSVK, VGRGGGYFDY.
Every variant below is changed at F106 of the VH (sequential numbering).
Numbers give log10(Kd / nM), so 0 is 1 nM and 3 is 1 µM. Smaller is tighter.
A mean of the replicates is given; it leaves out those without a signal.
Where no diploid with the target was found in any replicate, the entry reads "nd": below detection, most likely a poor binder, though not proof of it.
Empty control strains, which show no peptide, gave a signal in 21% of pairings with library AAYL51; the median was 4.54 and 95% of these signals were weaker than 3.26. No background was subtracted.

Variant GFTFDDYAML / GISWNSGSIGYHDSVK / VGRGGGYLDY gave nd (0 of 3 replicates).
Variant GFTFDDYAMH / GISWNSGSIGYADSVK / VGRGGGYALY gave 1.91 (3 of 3 replicates).
Variant GFTFDDYAMH / GISWNSGSIGYADSVK / VGRGGGYNDY gave nd (0 of 3 replicates).
Variant GFTFDDYAMH / GISWNSGSIGYADSVG / VGRGGGYHDY gave 4.47 (1 of 3 replicates).
Variant GFTFDDYAMH / GISWNSGSIGYADSVK / VGTGGGYYHY gave nd (0 of 3 replicates).
Variant VFTFDDYAMH / GISWNSGSIGYADSVK / VGRGGGYPDK gave 3.99 (1 of 3 replicates).
Variant GFTFDDYAMH / CISWKSGSIGYADSVK / VGRGGGYDDY gave 3.95 (1 of 3 replicates).
Variant GFTFDDYAMH / GIKWNSCSIGYADSVK / VGRGGGYVDY gave nd (0 of 3 replicates).
Variant YFTMDDYAMH / GISWNSGSIGYADSVK / VGRGGGYYDY gave nd (0 of 3 replicates).
Variant GFTFDDYAMH / GISFNSGCIGYADSVK / VGRGGGYCDY gave 2.93 (3 of 3 replicates).
Variant GFTFDDYAMH / GISWNNGWIGYADSVK / VGRGGGYTDY gave nd (0 of 3 replicates).
Variant GFTFDDYAMH / GISWNSGSFGYADSVK / VGRGGGYQDY gave 4.59 (1 of 3 replicates).
Variant GFTFDDYAML / GISWNSGSIGYADSVK / VGRGGGYCGY gave 4.86 (3 of 3 replicates).
Variant GFTFDDYAMH / GISWNSGSIGYAQSVK / VGRGGKYVDY gave nd (0 of 3 replicates).
Variant GFTFDDGAMH / GISWNSGSIGYADSVK / VGRGGGYDDN gave 3.78 (1 of 3 replicates).
Variant GFTFDDYAMH / GISWNSGSIGYAYSVK / VGPGGGYNDY gave nd (0 of 3 replicates).
Variant GFTFDDYAMH / GISWNWGSIGYADSVK / VGRGGGYGDY gave nd (0 of 3 replicates).
Variant GFNFDDYAMH / GISWNSGSIGYADSVK / VGRGGGCCDY gave 1.70 (3 of 3 replicates).
Variant GFTFDDYEMH / GISWNSGSIGYADSVK / VNRGGGYGDY gave 5.50 (2 of 3 replicates).
Variant GFTFDDYAMH / GISWNSGSIGYAPSVL / VGRGGGYYDY gave 4.84 (1 of 3 replicates).
Variant GFTFDDYAMH / GITWNSGSIGYADSVK / VGRGGLYPDY gave 4.34 (1 of 3 replicates).
Variant GFTFDDYAMH / GISWNSGVIHYADSVK / VGRGGGYNDY gave 4.98 (3 of 3 replicates).
Variant GFTFDSYAMH / GISWNSGSIGYADSVK / VGRGGGYRDY gave 4.55 (1 of 3 replicates).
Variant GFTFDDRAMH / GISWNSGSIGYADSVK / TGRGGGYHDY gave 4.96 (1 of 3 replicates).
Variant GFTFDDYAMH / GISWNSGSIGYADSVK / VGRPGEYSDY gave nd (0 of 3 replicates).
Variant GFTFDDYAMH / GISWNSGYIGYADSVK / VGRGGGYRWY gave nd (0 of 3 replicates).
Variant GFTFMDYAMH / GISWNSGSIGYADSVK / VGRGGGYEDY gave 1.43 (3 of 3 replicates).
Variant GFTFDDYAMH / GNSWNSGSIGYADSVK / VPRGGGYGDY gave nd (0 of 3 replicates).
Variant GFTFDDSAMH / GISWNSGSIGYADSVK / VGNGGGYKDY gave nd (0 of 3 replicates).
Variant GFTKDDYAMH / GISWNSGSIGYADSVK / VGRGGGYEDY gave nd (0 of 3 replicates).
Variant GFTFDDYAMH / GISWNSGSIGYADSVK / VGYGGGYMDY gave nd (0 of 3 replicates).
Variant GKTFDDYAMH / GISWNSGSIGYADSVK / VGRGGGYSDY gave nd (0 of 3 replicates).
Variant GFTFDVYAMH / GISWNSGSIGYAASVK / VGRGGGYIDY gave 3.17 (3 of 3 replicates).
Variant GFTFVDYAMH / GISLNSGSIGYADSVK / VGRGGGYWDY gave 4.39 (1 of 3 replicates).
Variant GFTFDDYAMH / GISWNSGSINYADSVK / VGRGGGYKDY gave 4.66 (2 of 3 replicates).
Variant GFTFEDYAMH / GISWNSGRIGYADSVK / VGRGGGYSDY gave 4.37 (1 of 3 replicates).
Variant GFTFDDYAMH / GISWNSGSIGYVDSVK / VGRGGGYLDN gave 1.91 (3 of 3 replicates).
Variant AFTFDDYAMH / GISWNSGSLGYADSVK / VGRGGGYLDY gave 5.10 (1 of 3 replicates).
Variant GFTFDDYAMH / GISWNSGSIGYADSVK / VGRGGGLWDY gave 2.39 (3 of 3 replicates).
Variant GFTFDDYAMH / GISWNSGSIGYADSVK / PGRGPGYIDY gave 1.79 (3 of 3 replicates).
Variant GFTFDDYAMH / GMSWNSTSIGYADSVK / VGRGGGYKDY gave nd (0 of 3 replicates).
Variant IFTFDDYAMH / GISWLSGSIGYADSVK / VGRGGGYYDY gave nd (0 of 3 replicates).
Variant GFTFDDYAMH / GISWNSGSIGYADSVK / VGSGGGYYDY gave nd (0 of 3 replicates).
Variant GFTFDDYAMH / GISWNSGSIGYADSVR / VGRDGGYHDY gave 3.73 (1 of 3 replicates).
Variant GFTFDDNAMD / GISWNSGSIGYADSVK / VGRGGGYMDY gave 2.77 (3 of 3 replicates).
Variant GFTFDDYAME / RISWNSGSIGYADSVK / VGRGGGYRDY gave 5.66 (3 of 3 replicates).
Variant GFTFDDYAMH / GISWNSGSIGYADSVE / VGRIGGYTDY gave 0.87 (3 of 3 replicates).
Variant GFTFDDYAMH / GISWNSGSEGYADSVK / VGRGGGYIFY gave 1.49 (3 of 3 replicates).
Variant GFTFDDYSMH / GISWNSGSIGYADSVK / KGRGGGYIDY gave 4.42 (1 of 3 replicates).

In this assay the parent's reference entry averaged 1.86; its copy inside this library read 0.88.